Test results as given in patent US20260382631A1, “NLRP3 INFLAMMASOME INHIBITORS AND USES THEREOF” (published 2026).

Sequences of proteins named here, by UniProt entry; tags and fusion partners are left off.
UniProt Q96P20, whole entry: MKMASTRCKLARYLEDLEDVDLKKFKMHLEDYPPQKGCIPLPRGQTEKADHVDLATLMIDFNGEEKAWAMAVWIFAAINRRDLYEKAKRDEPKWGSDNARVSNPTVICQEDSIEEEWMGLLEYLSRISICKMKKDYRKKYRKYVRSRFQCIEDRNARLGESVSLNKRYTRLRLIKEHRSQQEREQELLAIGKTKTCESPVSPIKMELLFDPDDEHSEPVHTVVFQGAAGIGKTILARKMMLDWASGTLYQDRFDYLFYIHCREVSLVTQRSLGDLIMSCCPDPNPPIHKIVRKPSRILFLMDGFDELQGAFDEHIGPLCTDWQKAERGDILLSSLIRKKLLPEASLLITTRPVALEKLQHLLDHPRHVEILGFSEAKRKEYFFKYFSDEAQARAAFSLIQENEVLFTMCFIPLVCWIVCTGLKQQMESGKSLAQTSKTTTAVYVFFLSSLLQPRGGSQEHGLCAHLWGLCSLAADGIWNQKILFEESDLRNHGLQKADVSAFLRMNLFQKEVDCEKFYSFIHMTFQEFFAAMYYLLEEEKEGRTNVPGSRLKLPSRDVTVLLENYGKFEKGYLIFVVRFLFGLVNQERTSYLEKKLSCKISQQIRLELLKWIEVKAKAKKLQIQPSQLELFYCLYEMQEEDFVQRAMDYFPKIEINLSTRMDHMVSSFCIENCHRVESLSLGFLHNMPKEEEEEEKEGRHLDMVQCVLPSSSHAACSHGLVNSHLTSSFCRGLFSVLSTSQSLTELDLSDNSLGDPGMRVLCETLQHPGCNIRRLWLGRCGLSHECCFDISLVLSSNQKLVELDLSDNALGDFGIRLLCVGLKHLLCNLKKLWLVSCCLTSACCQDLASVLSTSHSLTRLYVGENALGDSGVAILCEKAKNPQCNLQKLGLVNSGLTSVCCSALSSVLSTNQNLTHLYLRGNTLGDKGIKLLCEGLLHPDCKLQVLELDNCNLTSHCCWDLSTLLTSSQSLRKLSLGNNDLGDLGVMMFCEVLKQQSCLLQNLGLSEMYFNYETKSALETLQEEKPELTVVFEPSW

How the values were obtained:
NLRP3 [1] = target: T1, NLRP3 (Homo sapiens, UniProt Q96P20); assay: NLRP3 Inflammasome Assay ([3H]-MCC950 radioligand binding, NLRP3 cell lysate); settings: read-out: NLRP3, IC50 (nM), Example B-1; [3H]-MCC950 radioligand 25 nM working concentration; NLRP3 insect cell lysate 15 μg/well; 1.5 h, room temperature
Experimental: • 1) Compound dilutions for IC50s test: Starting at 100 μM, 3 fold dilutions were conducted. Next 11 doses were dispensed at 100 DMSO concentration. 9 μL of compound (10 mM stock from compound management team) as added to 384LDV plate. Echo was used for the dilution and transfer the compounds to assay the plate at 100 μM (top concentration at 1%~DMSO, 1.25 μL). • 2) Radioligand dilution: working concentration was 25 nM [^3H]-MCC950. 1 μL. [^3H]-MCC950 (23 μM stock) was added to 919 μL assay buffer. • 3) Prepare and transfer 100 μl of insect cell lysate to a 96-well assay plate. Final concentration: 15 μg/well for IC50 test. • 4) Transfer 25 μL of diluted ligand to the assay plate. • 5) Cover assay plates with foil tape and incubate 1.5 hour, at room temperature with gentle shaking. • 6) Using the Packard Harvester, filler the wells of the assay plate through the wells of the GF/B filter plates. Wash 8 times with cold washing buffer (4 °C, 0.4 mL per well per wash). • 7) Place the filter plates in an oven for 0.5 hours at 50 °C. • 8) Seal the bottom of the dry filter plates with backing tape. Dispense 50 μL Microscint-20 to each well of the filter plate and cover GF/B plate with TopSeal-A. • 9) Microbeta was used to count the signal. • 10) Microbeta Setting: Count Time was 30 seconds per well.

NLRP3 [2] = target: T1, NLRP3; assay: NLRP3 Enzymatic Activity ADP-Glo Assay; settings: read-out: NLRP3_ADP-Glo_IC50 (nM), Example B-4; NLRP3 15 nM, ATP 1 μM; 0.5% DMSO; 90 min, room temperature
Experimental: NLRP3 activity test experiment, measuring the hydrolysis of NLRP3 on the substrate ATP using the ADP-Glo assay. First, after adding an inhibitor containing 0.5% DMSO with Echo, add 5 μL of NLRP3 (ICE, YM2306T-H06MHS) enzyme solution to each well, centrifuge at 1000 rpm for 1 min at room temperature and react for 10 min. Then add 5 μL of ATP (Promega, V915A) substrate solution to each well for 90 min at room temperature; NLRP3 and ATP were prepared in 50 mM HEPES, 10 mM MgCl2, 0.01% Brij-35, 1 mM EGTA, and 2 mM DTT buffers at final concentrations of 15 nM and 1 μM, respectively. Subsequently, 10 μL ADP-Glo reagent solution (Promega, V9102) was added into each assay well, centrifuged at 1000 rpm for 1 min, and then incubated at room temperature for 45 min. Finally, 20 uL ADP-Glo detection solution (Promega, V9102) is added to each well, centrifuged at 1000 rpm for 1 min and reacted for 45 min at room temperature. The luminescence signal values were read using a BMG instrument and the IC50 values were determined by fitting the data to an S-shaped dose-response curve using nonlinear regression.

THP-1 cells = assay: IL-1β Release THP-1 Assay; settings: read-out: THP-1 IL-1β, IC50 (nM), Example B-3; PMA-differentiated THP-1; LPS 3 h, compound 30 min, Nigericin 1 h; IL-1β by Elisa
Experimental: THP-1 cells Culture RPM11640 medium, 10% FBS, 1% PS, 55 uM β-Mer at 37 °C & 5% CO2 incubator.
• 1) Seed THP-1 in complete RPMI 1640 medium containing PMA into 96 well plate coated with poly-L-lysin incubate for 24 hours. • 2) Remove medium, wash the differentiated THP-1 cells with PBS, add FBS free RPMI 1640 medium. • 3) Add LPS and incubate for 3 hours at 37 °C & 5% CO2 incubator. • 4) Add compounds and incubate for 30 minutes at 37 °C & 5% CO2 incubator. • 5) Add Nigericin and incubate for 1 hour at 37 °C & 5% CO2 incubator. • 6) Collect supernatant to test IL-1β by Elisa.
• a) Assay robustness check with DMSO and Low control data:
change %=Sample/Ave_L*100 • b) Fit the cpd IC50 from non-linear regression equation:
Y=Bottom+(Top−Bottom)/(1+10^((Log IC50−X)*HillSlope)) • X: cpd concentration • Y: change % • Top and Bottom: Plateaus in same units as Y • log IC50: same log units as X • HillSlope: Slope factor or Hill slope

Compound	IC50 (NLRP3 [1]) [nM]	IC50 (NLRP3 [2]) [nM]	IC50 (THP-1 cells) [nM]
CN1C[C@H](F)C[C@@H](N2CCn3ncc4c(-c5ccc(C(F)(F)F)cc5O)nnc2c43)C1	100 to 1000		
Oc1cc(C(F)(F)F)ccc1-c1nnc2c3c1cnn3CCCN2[C@@H]1CC[C@@H]1O		100 to 1000	
OCC(O)CN1CCCn2ncc3c(-c4ccc(C(F)(F)F)cc4O)nnc1c32 (centres unmarked)		100 to 1000	
Oc1cc(C(F)(F)F)ccc1-c1nnc2c3c1cnn3CCCN2[C@@H]1CCC[C@H]1O		100 to 1000	100 to 1000
C[C@@H](O)CN1CCn2ncc3c(-c4ccc(C(F)(F)F)cc4O)nnc1c32	100 to 1000		
C[C@H](CO)N1CCCn2ncc3c(-c4ccc(C(F)(F)F)cc4O)nnc1c32	100 to 1000		
C[C@@]1(O)CCC[C@H]1N1CCCn2ncc3c(-c4ccc(C(F)(F)F)cc4O)nnc1c32		> 1000	
Cc1cc(C(F)(F)F)cc(O)c1-c1cnc2c(n1)nc1n2CCN1[C@@H]1CCCN(C)C1		10 to 100	< 10
CN1CCC[C@@H](N2CCCn3ncc4c(-c5ccc(C(F)(F)F)cc5O)nnc2c43)C1	10 to 100		10 to 100
C[C@@H](O)CN1CCCn2ncc3c(-c4ccc(C(F)(F)F)cc4O)nnc1c32	100 to 1000		100 to 1000
CC(C(O)CO)N1CCCn2ncc3c(-c4ccc(C(F)(F)F)cc4O)nnc1c32 (centres unmarked)		> 1000	
OCCN1CCCn2ncc3c(-c4ccc(C(F)(F)F)cc4O)nnc1c32		10 to 100	
Oc1cc(C(F)(F)F)ccc1-c1nnc2c3c1cnn3CCCN2		> 1000	
CN1CCC[C@@H](N2CCCc3ncc4c(-c5ccc(C(F)(F)F)cc5O)nnc2n34)C1	10 to 100		10 to 100
C[C@H](O)CN1CCCn2ncc3c(-c4ccc(C(F)(F)F)cc4O)nnc1c32		100 to 1000	
Oc1cc(C(F)(F)F)ccc1-c1nnc2c3c1cnn3CCCN2[C@@H]1CC[C@@H](O)C1		100 to 1000	
Cc1cc(C#N)cc(O)c1-c1cnc2c(n1)nc1n2CCN1[C@@H]1CCCN(C)C1		10 to 100	10 to 100
Oc1cc(C(F)(F)F)ccc1-c1nnc2c3c1cnn3CCN2[C@H]1CN2CCC1CC2	> 1000		
CN1CCC[C@@H](N2CCn3ncc4c(-c5ccc(C(F)(F)F)cc5O)nnc2c43)C1	10 to 100		10 to 100
CC(CO)CN1CCCn2ncc3c(-c4ccc(C(F)(F)F)cc4O)nnc1c32 (centres unmarked)			100 to 1000
COc1cc(C)c(-c2cnc3c(n2)nc2n3CCN2[C@@H]2CCCN(C)C2)c(O)c1		10 to 100	10 to 100
